These molecules were tested against T1, MR (Homo sapiens, UniProt P08235) (assay: Cell-based reporter assay (Gal4-MR-LBD luciferase, antagonist mode)).
T1 construct: expressed in transfected cells; host or cells: Huh7 human liver cells (ATCC), transient transfection with FuGENE 6
T1 sequence (P08235 726-964 limits assumed): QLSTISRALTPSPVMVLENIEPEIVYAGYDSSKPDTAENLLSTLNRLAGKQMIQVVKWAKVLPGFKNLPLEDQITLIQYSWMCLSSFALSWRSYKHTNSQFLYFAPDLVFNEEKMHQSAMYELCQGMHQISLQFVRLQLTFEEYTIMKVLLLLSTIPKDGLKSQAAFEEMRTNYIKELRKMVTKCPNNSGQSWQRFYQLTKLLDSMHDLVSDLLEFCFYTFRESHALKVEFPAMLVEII
Protocol: To measure the ability of test compound in the present invention to modulate the activity of MR (agonize, antagonize, partially agonize, partially antagonize), bioassays were performed that measured the modulation of reporter gene expression. Cells were transiently transfected with a luciferase reporter gene under the control of a Gal4 response element (Gal4-RE-luc) and a plasmid containing the Gal4 DNA binding domain fused to the MR ligand binding domain (Gal4-MR-LBD). Agonists can bind to and activate the MR-LBD, which activates the expression of the luciferase reporter gene through interaction with the Gal4 response element. […] Antagonists can compete for binding to the NHR-LBD and decrease the agonist-induced transcriptional activity of the reporter gene. Therefore, measurement of luciferase activity allowed quantitative determinations of the reporter transcription in the presence of either agonists or competitive antagonists.
The final concentration of DMSO in the test plate was 0.5%. Following an overnight incubation with compound, 25 μL of Steady-Glow™ lysis buffer with luciferase substrate (Promega Corporation, E2550) was added directly to the cells. After a 30-minute incubation to completely lyse the cells, the microplates were counted in an Envision™ Multilabel Reader (Perkin Elmer) in single photon counting mode.

Structure (SMILES) | IC50 [nM]
C[C@H]1CN(c2ccc3c(n2)NC(=O)CO3)[C@@H](c2ccc(F)cc2)CO1 (racemic) [Example 9, (±)-6-(cis-5-(4-fluorophenyl)-2-methylmorpholino)-2H-pyrido[3,2-b][1,4]oxazin-3(4H)-one] | 137
C[C@H]1CN(c2ccc3c(n2)NC(=O)CO3)[C@@H](c2cccc(F)c2)CO1 (racemic) [Example 11, (±)-6-(cis-5-(3-fluorophenyl)-2-methylmorpholino)-2H-pyrido[3,2-b][1,4]oxazin-3(4H)-one] | 89.9
C[C@H]1CN(c2ccc3c(n2)NC(=O)CO3)[C@H](c2ccc(F)cc2)CO1 (racemic) [Example 48, (±)-6-(trans-5-(4-fluorophenyl)-2-methylmorpholino)-2H-pyrido[3,2-b][1,4]oxazin-3(4H)-one] | 1380
C[C@@H]1CN(c2ccc3c(n2)NC(=O)CO3)[C@H](c2ccc(F)cc2)CO1 (single isomer, unassigned) [Example 10] | 105
C[C@@H]1CN(c2ccc3c(n2)NC(=O)CO3)[C@H](c2cccc(F)c2)CO1 (single isomer, unassigned) [Example 29] | 55

Source: patent US20110281854A1, “MORPHOLINE COMPOUNDS” (Pfizer Inc, priority 2010, published 2011)
